The target of this test is T1, human FXR (Homo sapiens, UniProt Q96RI1).
T1 sequence (Q96RI1 1-486): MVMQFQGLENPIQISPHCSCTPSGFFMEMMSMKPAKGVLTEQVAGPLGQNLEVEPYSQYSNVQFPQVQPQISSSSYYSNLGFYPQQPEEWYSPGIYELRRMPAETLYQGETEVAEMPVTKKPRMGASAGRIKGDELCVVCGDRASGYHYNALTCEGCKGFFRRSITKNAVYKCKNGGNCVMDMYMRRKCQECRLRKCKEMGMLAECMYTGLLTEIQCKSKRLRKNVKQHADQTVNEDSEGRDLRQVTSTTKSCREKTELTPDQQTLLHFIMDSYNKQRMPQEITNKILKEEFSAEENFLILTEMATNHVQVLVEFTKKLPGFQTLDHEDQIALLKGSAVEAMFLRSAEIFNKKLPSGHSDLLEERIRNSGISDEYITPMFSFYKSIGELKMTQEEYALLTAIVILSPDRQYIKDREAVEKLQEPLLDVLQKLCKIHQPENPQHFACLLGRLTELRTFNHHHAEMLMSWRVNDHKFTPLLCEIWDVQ
T1 sequence (P19793 1-462 partner): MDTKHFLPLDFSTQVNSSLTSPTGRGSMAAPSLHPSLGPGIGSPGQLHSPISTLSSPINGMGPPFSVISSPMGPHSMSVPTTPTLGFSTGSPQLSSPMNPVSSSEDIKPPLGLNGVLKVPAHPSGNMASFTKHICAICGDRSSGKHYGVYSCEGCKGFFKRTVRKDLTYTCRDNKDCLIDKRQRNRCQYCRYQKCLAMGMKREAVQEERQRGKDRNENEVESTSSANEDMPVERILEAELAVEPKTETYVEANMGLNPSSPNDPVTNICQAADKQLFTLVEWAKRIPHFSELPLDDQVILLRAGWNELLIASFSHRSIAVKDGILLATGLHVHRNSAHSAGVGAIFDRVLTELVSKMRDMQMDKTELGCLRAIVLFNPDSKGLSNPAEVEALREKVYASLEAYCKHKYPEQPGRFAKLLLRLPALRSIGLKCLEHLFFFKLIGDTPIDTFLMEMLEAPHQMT
Description: FXR luciferase reporter gene assay (FXRE-luc) in HepG2 cells, antagonistic mode. The format is cell-based. The conditions noted are these: at 100 µM, with 1 µM OCA.

For `C/C=C1\C(=O)C[C@H]2[C@@H]3CCC4=CC(=O)CC[C@]4(C)[C@H]3CC[C@]12C` [Z-GUG, Z-guggulsterone, reference compound], the “inhibition of FXR activation” value was found to be 70%.

Values taken from paper PMC8414367, “(E)-7-Ethylidene-lithocholic Acid (7-ELCA) Is a Potent Dual Farnesoid X Receptor (FXR) Antagonist and GPBAR1 Agonist Inhibiting FXR-Induced Gene Expression in Hepatocytes and Stimulating Glucagon-like Peptide-1 Secretion From Enteroendocrine Cells” (Frontiers in Pharmacology, 2021).
